Experimental data from PubChem BioAssay (NCI).
Some tests of the compounds listed are not included; inactive here does not mean inactive elsewhere.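 Each compound was tested at five concentrations against cells in 96-well plates for 48 hours. GI50 marks 50% less growth. At the TGI there is no net growth.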

Columns and labels:
Assay in all cases: DTP human tumour cell line panel, 48 h
ACHN renal = tested on: ACHN renal
NCI-H226 lung = tested on: NCI-H226 lung
MOLT-4 leukemia = tested on: MOLT-4 leukemia
SN12C renal = tested on: SN12C renal
OVCAR-8 ovarian = tested on: OVCAR-8 ovarian
SF-539 CNS = tested on: SF-539 CNS
LOX IMVI melanoma = tested on: LOX IMVI melanoma
COLO 205 colon = tested on: COLO 205 colon
UACC-257 melanoma = tested on: UACC-257 melanoma
RXF 393 renal = tested on: RXF 393 renal
NCI/ADR-RES ovarian = tested on: NCI/ADR-RES ovarian
BT-549 breast = tested on: BT-549 breast
A549 NSCLC = tested on: A549 NSCLC
PC-3 prostate = tested on: PC-3 prostate
SNB-75 CNS = tested on: SNB-75 CNS
SW-620 colon = tested on: SW-620 colon
HOP-62 NSCLC = tested on: HOP-62 NSCLC
T-47D breast = tested on: T-47D breast
SK-OV-3 ovarian = tested on: SK-OV-3 ovarian
CCRF-CEM leukemia = tested on: CCRF-CEM leukemia
KM12 colon = tested on: KM12 colon
OVCAR-3 ovarian = tested on: OVCAR-3 ovarian
UACC-62 melanoma = tested on: UACC-62 melanoma
MDA-N = tested on: MDA-N
OVCAR-5 ovarian = tested on: OVCAR-5 ovarian
EKVX NSCLC = tested on: EKVX NSCLC

Q: `CC(C)/C=C\C(O)(C(=O)OC1CN2CCC1CC2)c1ccccc1` (configuration not stated) was tested. Which GI50 (ACHN renal) did it give?
A: > 100 µM

Q: And the TGI (ACHN renal)?
A: > 100 µM

Q: And the GI50 (NCI-H226 lung)?
A: > 100 µM

Q: And the TGI (NCI-H226 lung)?
A: > 100 µM

Q: What about the GI50 (MOLT-4 leukemia) of the same compound?
A: > 100 µM

Q: What about the TGI (MOLT-4 leukemia) of the same compound?
A: > 100 µM

Q: And the GI50 (SN12C renal)?
A: > 100 µM

Q: And the TGI (SN12C renal)?
A: > 100 µM

Q: And the GI50 (OVCAR-8 ovarian)?
A: > 100 µM

Q: What about the TGI (OVCAR-8 ovarian) of the same compound?
A: > 100 µM

Q: And the GI50 (SF-539 CNS)?
A: > 100 µM

Q: And the TGI (SF-539 CNS)?
A: > 100 µM

Q: And the GI50 (LOX IMVI melanoma)?
A: > 100 µM

Q: What about the TGI (LOX IMVI melanoma) of the same compound?
A: > 100 µM

Q: And the GI50 (COLO 205 colon)?
A: > 100 µM

Q: And the TGI (COLO 205 colon)?
A: > 100 µM

Q: And the GI50 (UACC-257 melanoma)?
A: > 100 µM

Q: What about the TGI (UACC-257 melanoma) of the same compound?
A: > 100 µM

Q: What about the GI50 (RXF 393 renal) of the same compound?
A: > 100 µM

Q: What about the TGI (RXF 393 renal) of the same compound?
A: > 100 µM

Q: And the GI50 (NCI/ADR-RES ovarian)?
A: 25.2 µM

Q: And the TGI (NCI/ADR-RES ovarian)?
A: 84.1 µM

Q: And the GI50 (BT-549 breast)?
A: > 100 µM

Q: What about the TGI (BT-549 breast) of the same compound?
A: > 100 µM

Q: And the GI50 (A549 NSCLC)?
A: > 100 µM

Q: What about the TGI (A549 NSCLC) of the same compound?
A: > 100 µM

Q: And the GI50 (PC-3 prostate)?
A: > 100 µM

Q: What about the TGI (PC-3 prostate) of the same compound?
A: > 100 µM

Q: And the GI50 (SNB-75 CNS)?
A: > 100 µM

Q: What about the TGI (SNB-75 CNS) of the same compound?
A: > 100 µM

Q: What about the GI50 (SW-620 colon) of the same compound?
A: > 100 µM

Q: What about the TGI (SW-620 colon) of the same compound?
A: > 100 µM

Q: And the GI50 (HOP-62 NSCLC)?
A: > 100 µM

Q: What about the TGI (HOP-62 NSCLC) of the same compound?
A: > 100 µM

Q: What about the GI50 (T-47D breast) of the same compound?
A: > 100 µM

Q: And the TGI (T-47D breast)?
A: > 100 µM

Q: What about the GI50 (SK-OV-3 ovarian) of the same compound?
A: > 100 µM

Q: What about the TGI (SK-OV-3 ovarian) of the same compound?
A: > 100 µM

Q: What about the GI50 (CCRF-CEM leukemia) of the same compound?
A: > 100 µM

Q: And the TGI (CCRF-CEM leukemia)?
A: > 100 µM

Q: What about the GI50 (KM12 colon) of the same compound?
A: > 100 µM

Q: And the TGI (KM12 colon)?
A: > 100 µM

Q: What about the GI50 (OVCAR-3 ovarian) of the same compound?
A: > 100 µM

Q: What about the TGI (OVCAR-3 ovarian) of the same compound?
A: > 100 µM

Q: What about the GI50 (UACC-62 melanoma) of the same compound?
A: > 100 µM

Q: And the TGI (UACC-62 melanoma)?
A: > 100 µM

Q: What about the GI50 (MDA-N) of the same compound?
A: > 100 µM

Q: What about the TGI (MDA-N) of the same compound?
A: > 100 µM

Q: What about the GI50 (OVCAR-5 ovarian) of the same compound?
A: 85.4 µM

Q: What about the TGI (OVCAR-5 ovarian) of the same compound?
A: > 100 µM

Q: What about the GI50 (EKVX NSCLC) of the same compound?
A: > 100 µM

Q: And the TGI (EKVX NSCLC)?
A: > 100 µM
